Results published in PubChem BioAssay AID720523 (National Center for Advancing Translational Sciences (NCATS), 2013).
The hits were mostly taken out for another list; the other results follow. Inconclusive results are not listed. Calls of active or inactive are those of the source. Calls follow the shape of the dose curve; as a rule, active = well fitted inhibition curve with a large enough effect; inconclusive = small, poorly fitted or top-dose-only effect; inactive = flat fitted curve, though single readings scatter.

Experiment: Nrf2 qHTS screen for inhibitors: A549 ARE-Fluc Cytotoxicity Counterscreen for Hit Validation;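 also: cells exposed to compounds for 18 to 24 hours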
Details: A549 ARE-Fluc cells; at 46.1 µM (top of the series)
From the text: Nrf2 is a transcription factor that maintains cellular redox homoestasis and protects cells from xenobiotics. Nrf2 binds to the antioxidant response element (ARE) to induce gene expression of a broad spectrum of genes that encode for antioxidants. […] Finding a small molecule that act as an inhibitor of Nrf2 function would represent a novel therapeutic target that could lead to improvement in survival of patients undergoing chemo- and/or radio- therapy.
In collaboration with the Biswal laboratory, a cell based, luminescence assay (BugLite) was developed to detect the Nrf2 activity using the A549 ARE_Fluc cells (AID 504648). This assay was coupled with a fluorescence based (CellTiter Fluor) cytotoxicity assay to identify and exclude toxic compounds. […] The data herein is the result of the CellTiter Fluor assay where decrease in fluorescence signal = cytotoxicity. […]
Five uL of cell suspension was dispensed into 1536-well white TC-treated plate using the Kalypsys dispenser to achieve a density of 5000 cells/well in all columns except column 1. […] The fluorescence signal was read using the PerkinElmer ViewLux plate reader (Ex = 405 nm /Em = 525 nm) for a 3 second exposure. […] A second ViewLux read (40 sec exposure) was performed to detect the luminescence signal. Cytotoxicity was assessed through the first fluorescent read while biochemical activity against Nrf2 was measured in the luminescent read. […]
% is scaled to controls: 0 for no effect and ±100 for the full control effect.

SMILES | activity change, negative = cytotoxicity
N=C(N)c1ccc(OCCCCCOc2ccc(C(=N)N)cc2)cc1 | inactive: -8.81%
